{"source": "patent US10328110B2", "about": "“Pharmaceutical composition for promoting bone tissue formation, containing Stauntonia hexaphylla leaf extract as active ingredient” (Jeonnam Bioindustry Foundation, priority 2013, dated 2019)", "molecules": {"B1": {"name": "BMP-2: bone morphogenic protein-2, osteoblast differentiation inducer used as positive control (protein, UniProt P12643 283-396, looked up)", "Bone morphogenetic protein 2": "QAKHKQRKRLKSSCKRHPLYVDFSDVGWNDWIVAPPGYHAFYCHGECPFPLADHLNSTNHAIVQTLVNSVNSKIPKACCVPTELSAISMLYLDENEKVVLKNYQDMVVEGCGCR"}}, "tested_on": "C2C12 cells as osteoblast stem cells", "test": "AP activity site staining using an NBT/BCIP substrate (osteoblast differentiation degree)", "type": "cell-based", "details": "BMP-2 10 ng/ml alone (positive control), compared to control group not treated with BMP-2 and the sample", "experimental": "C2C12 cells as osteoblast stem cells were aliquoted to a 48 well plate in a number of 5×10^4 cells/well and cultured in α-MEM essential medium, as cell growth medium, containing 10% of FBS and 0.1% of p/s for three days. Three days later, the medium was changed with α-MEM essential medium including 1% horse serum and 0.1% p/s in order to induce osteoblast differentiation. Subsequently, the cells were treated with 10 ng/ml of BMP-2 (bone morphogenic protein-2), and samples were simultaneously treated in a concentration-dependent manner, followed by culturing for five days.\nIn the present invention, groups were classified into a positive control treated with BMP-2 (10 ng/ml) as an osteoblast differentiation inducer, an experimental group treated with ethyl acetate fractions from stauntonia hexaphylla leaf hot-water extract (5, 10 ug/ml) alone and a non-treated control group none-treated, osteoblast differentiation degrees thereof were respectively measured through AP activity site staining using an NBT/BCIP substrate.\nIn particular, media of cells cultured for five days were removed and the cells were washed with 1× PBS three times. The cells were fixed at room temperature for 15 minutes by means of a 10% formalin solution and washed with 1× PBS three times to remove a formalin remainder. […]"}
{"molecule": "B1", "values": [{"measurement": "NBT/BCIP staining of AP activity sites", "value": "more stained"}]}
